In the assay the target is LepB Δ2-76 His-SUMO (Escherichia coli) (UniProt P00803). Put plainly: SPR; LepB Δ2-76 His-SUMO amine-coupled (EDC/NHS) to a CDH chip, Pioneer FE; OneStep method with 75% of the loop; peptides flowed at 50 μM, 50 μL/min, 180 s dissociation; regeneration with Tris-EDTA; triplicate. A general note: Surface plasmon resonance follows binding to a sensor surface in real time, without labels.

As usually defined, the Kd is the free concentration of one partner at which half of the binding sites on the other are occupied at equilibrium, for simple one-to-one binding. The substance MBP wt peptide came in with a Kd of 8.01 µM.

These data come from PMC10269814, “New Perspectives on Escherichia coli Signal Peptidase I Substrate Specificity: Investigating Why the TasA Cleavage Site Is Incompatible with LepB Cleavage” (Microbiology Spectrum, 2023).
